PubChem BioAssay AID487 (Columbia University Molecular Screening Center, 2006)
The entries are a selection whose mix differs from that of the whole data set. Calls of active or inactive are those of the source.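 How the source made its calls: active means visually confirmed hit in the image check and inhibition above 20%; inconclusive means visually confirmed hit but inhibition not above 20%; inactive means no visual hit in the image check.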

Experiment: endothelial E-selectin expression blockers – imaging, HUVEC, immunofluorescence, MLSMR starter and 10KST1 sets, primary screen (AID 487);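 further: signal is fraction of cell area covered by stained E-selectin grains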
Settings: HUVEC TNFalpha-induced E-selectin immunofluorescence imaging; at 2 µM; active compounds read high

Question: With `O=P(Nc1nccs1)(c1ccccc1)c1ccccc1` as the compound, how does the inhibition read?
Answer: Its inhibition is inactive: -91.6%.

Question: For `O=C(COc1ccccc1)OC1CN2CCC1CC2` (configuration not stated), which inhibition is on record?
Answer: Its inhibition is inactive: -60%.

Question: For `COP1(=S)c2c(C)nn(CCC#N)c2N=C(c2ccc(F)cc2)N1C` (configuration not stated), which inhibition is on record?
Answer: The inhibition was inactive: -4.6%.

Question: Which inhibition does the source give for `CCOP1(=S)c2c(C)nn(CCC#N)c2N=C(c2ccccc2F)N1C` (configuration not stated) here?
Answer: Its inhibition is inactive: -14.6%.

Question: Which inhibition does the source give for `Cc1cccc(OCC(=O)OC2CN3CCC2CC3)c1` (configuration not stated) here?
Answer: The inhibition was inactive: -60.7%.

Question: For `Cc1ccc(OCC(=O)OC2CN3CCC2CC3)cc1` (configuration not stated), which inhibition is on record?
Answer: Its inhibition is inactive: 18.1%.

Question: For `Cc1nn(-c2ccccc2)c2c1P(=O)(N1CCOCC1)N(C)C(c1ccccc1)=N2` (configuration not stated), which inhibition is on record?
Answer: Its inhibition is inactive: -23.6%.
